Chains of the proteins cited; added tags and fusions are not shown. Residues count along the entry.
UniProt P22303, 32-614 limits assumed: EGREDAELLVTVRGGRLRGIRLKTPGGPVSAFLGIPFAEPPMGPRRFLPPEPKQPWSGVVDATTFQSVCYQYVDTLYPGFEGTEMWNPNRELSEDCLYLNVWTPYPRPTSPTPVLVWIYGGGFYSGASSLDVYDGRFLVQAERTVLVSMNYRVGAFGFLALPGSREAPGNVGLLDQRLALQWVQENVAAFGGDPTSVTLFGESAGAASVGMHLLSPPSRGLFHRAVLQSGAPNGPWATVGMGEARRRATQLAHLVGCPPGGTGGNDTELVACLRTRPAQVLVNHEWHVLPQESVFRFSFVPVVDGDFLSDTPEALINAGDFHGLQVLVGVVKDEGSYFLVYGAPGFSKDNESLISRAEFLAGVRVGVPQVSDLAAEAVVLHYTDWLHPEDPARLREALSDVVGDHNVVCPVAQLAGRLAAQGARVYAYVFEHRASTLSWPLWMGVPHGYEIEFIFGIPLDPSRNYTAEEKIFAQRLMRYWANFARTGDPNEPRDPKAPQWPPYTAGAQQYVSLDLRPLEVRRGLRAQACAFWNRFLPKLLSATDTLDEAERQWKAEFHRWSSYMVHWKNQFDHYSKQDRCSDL

According to BindingDB's records for 2913311:

How the values were obtained:
Acetylcholinesterase [1] = molecular target: T1, Acetylcholinesterase (Homo sapiens, UniProt P22303); assay: ASSAY_NAME: ChEBML_28162 DESCRIPTION: Concentration of compound that reversibly inhibits acetylcholinesterase (AChE) by 50 %
Acetylcholinesterase [2] = molecular target: T1, Acetylcholinesterase; assay: ASSAY_NAME: ChEMBL_28163 (CHEMBL644118) DESCRIPTION: Reversible inhibition of acetylcholinesterase (AChE) by 50 % in human erythrocytes

| Compound | IC50 (Acetylcholinesterase [1]) | IC50 (Acetylcholinesterase [2]) |
| --- | --- | --- |
| C#CCCCC[n+]1ccc(CN=O)cc1 | 305 µM |  |
| C#CCCOC[n+]1ccn(C(C)(C)C)c1CN=O |  | 339 µM |
| C#CC(C)(C)OC[n+]1ccn(C)c1CN=O |  | 24.2 µM |
| C#CCCCC[n+]1ccn(COC)c1CN=O |  | 185 µM |
| CC#CC(C)OC[n+]1ccn(C)c1CN=O (configuration not stated) |  | 144 µM |
| C#CC1(OC[n+]2ccn(C)c2CN=O)CCCC1 |  | 24.2 µM |
| CC#CC(C)(C)OC[n+]1ccn(C)c1CN=O |  | 175 µM |
